{"source": "patent US20170050044A1", "about": "“Integumentary System Therapy” (priority 2015, published 2017)", "system": "skin of a human volunteer", "settings": "1 mA for 80 min", "note": "Where two headings read alike, the source gives them in different places."}
{"smiles": "CN(C)c1ccc2nc3ccc(=[N+](C)C)cc-3sc2c1", "note": "[methylene blue]", "values": [{"measurement": "skin colour at delivery electrode location after washing", "setting": "Example 10, with about 1 to 5% surfactant, upper arm", "value": "markedly blue throughout"}, {"measurement": "skin colour at delivery electrode location after washing", "setting": "Example 12, brushed site, with surfactant", "value": "markedly blue throughout"}]}
